According to PubChem BioAssay AID743287 (Broad Institute, 2014):
This is a selection; strong and weak results do not stand in their true shares. Some salts and complexes are drawn in separate pieces, as the source files them; their charges need not balance. Activity calls are given as the source filed them.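 The calls were made as follows: active = lowest replicate activation of at least 40%, so every replicate reaches that level; inactive = the rest.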

Assay: GLuc luminescence reporter in INS-1E cells, primary screen for activators of glucose-dependent secretion of insulin (AID 743287);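 also: 0% = median of neutral control wells and 100% = median of IBMX positive control wells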
Settings: INS-1E GLuc reporter insulin secretion, 2-3 h, at 16.6 µM, hits give high values
In the case of `COc1ccccc1-c1ccccn1.O=[N+]([O-])c1cc([N+](=O)[O-])c(O)c([N+](=O)[O-])c1`, the activation is reported as inactive: -7.1%. In the case of `CCN(CC)CCCOC(=O)C(O)(c1ccccc1)c1ccccc1`, the activation is reported as inactive: 7.72%. In the case of `CCOC(=O)c1ccc(NP(C)(=O)Oc2ccccc2)cc1` (stereo not given), the activation is reported as inactive: 1.14%. For `COc1ccccc1OP(C)(=O)Nc1cc(Cl)ccc1C` (stereo not given), the activation was inactive: 7.26%. For `O=[N+]([O-])c1cc([N+](=O)[O-])c(Nc2cccnc2)c([N+](=O)[O-])c1`, the activation was inactive: 13.4%. With `Cc1cccc(C)c1OP(C)(N)=O` (stereo not given) the activation was inactive: 3.31%. With `O=[N+]([O-])c1ccc2c(c1)C=Nc1ccccc1O2` the activation was inactive: 1.93%. For `COc1ccccc1OP(C)(=O)Nc1ccccc1` (stereo not given), the activation was inactive: 0.816%. In the case of `CP(=O)(Nc1ccccc1Br)Oc1ccccc1` (stereo not given), the activation is reported as inactive: 20.9%. With `CCOC(=O)c1ccc(NP(C)(=O)Oc2ccc(OC)cc2)cc1` (stereo not given) the activation was inactive: -24.3%. For `CP(=O)(Nc1ccccn1)Oc1ccc(Cl)cc1` (stereo not given), the activation was inactive: 8.82%. In the case of `Cc1cccc(C)c1OP(C)(=O)Nc1ccc(SC(F)(F)F)cc1` (stereo not given), the activation is reported as inactive: -24.8%. With `CP(=O)(Nc1ccc(SC(F)(F)F)cc1)Oc1ccc(Cl)cc1` (stereo not given) the activation was inactive: -22.1%. In the case of `CP(=O)(Oc1ccccc1)OC(c1ccccc1)C(F)(F)F` (stereo not given), the activation is reported as inactive: 6.98%. In the case of `CP(=O)(NC(=O)Nc1ccccc1)Oc1ccccc1` (stereo not given), the activation is reported as inactive: 9.69%. In the case of `Cc1cc(C)cc(OP(C)(=O)Nc2ccc(SC(F)(F)F)cc2)c1` (stereo not given), the activation is reported as inactive: -15.6%. In the case of `O=[N+]([O-])c1cc([N+](=O)[O-])c(-n2nnc3ccccc32)c([N+](=O)[O-])c1`, the activation is reported as inactive: -21.9%. With `CN(Cc1cccnc1)C(=O)COc1ccc(Cl)c(Cl)c1.O=[N+]([O-])c1cc([N+](=O)[O-])c(O)c([N+](=O)[O-])c1` the activation was inactive: -2.7%. For `CN1CCCCC1COC(=O)C1(O)c2ccccc2CCc2ccccc21` (stereo not given), the activation was inactive: -5.94%. In the case of `CCCOc1ccc(NP(C)(=O)Oc2ccc(Cl)cc2)cc1` (stereo not given), the activation is reported as inactive: -36.2%. For `CP(=O)(Nc1ccc(SC(F)(F)F)cc1)Oc1ccccc1` (stereo not given), the activation was inactive: -34.3%. With `COc1ccc(-c2ccccn2)cc1.O=[N+]([O-])c1cc([N+](=O)[O-])c(O)c([N+](=O)[O-])c1` the activation was inactive: 2.74%. In the case of `O=[N+]([O-])c1cc([N+](=O)[O-])c(Nc2nnnn2CCO)c([N+](=O)[O-])c1`, the activation is reported as inactive: -5.56%. In the case of `CCOC(=O)C(CC)C1=NC(C)(C)Cc2ccccc21.O=[N+]([O-])c1cc([N+](=O)[O-])c(O)c([N+](=O)[O-])c1` (stereo not given), the activation is reported as inactive: 14.7%. In the case of `CC1=NCCc2c1[nH]c1ccccc21.O=[N+]([O-])c1cc([N+](=O)[O-])c(O)c([N+](=O)[O-])c1`, the activation is reported as inactive: 19.1%. With `O=C(O)c1cccc(Nc2c([N+](=O)[O-])cc([N+](=O)[O-])cc2[N+](=O)[O-])c1` the activation was inactive: -29.5%. In the case of `Cc1cc(C)cc(OP(C)(=O)Nc2ccccn2)c1` (stereo not given), the activation is reported as inactive: 20%. For `CP(=O)(Nc1cccc(Br)c1)Oc1ccccc1` (stereo not given), the activation was inactive: -14%. With `COc1ccccc1OP(C)(=O)Nc1cccc(Br)c1` (stereo not given) the activation was inactive: 1.58%. In the case of `Cc1cc(C)cc(OP(C)(=O)Nc2ccc(C)cc2C)c1` (stereo not given), the activation is reported as inactive: 11.3%. In the case of `CCOC(=O)c1ccc(NP(C)(=O)Oc2cc(C)cc(C)c2)cc1` (stereo not given), the activation is reported as inactive: -31.7%. For `O=C(OCCN1CCN(CCOCc2ccccc2)CC1)C(O)(c1ccccc1)c1ccccc1`, the activation was inactive: -14.2%. In the case of `O=C(OC1CN2CCC1CC2)c1ccc([N+](=O)[O-])cc1` (stereo not given), the activation is reported as inactive: 19.9%. For `COc1ccc2c(c1O)-c1c(O)c(OC)cc3c1[C@H](C2)[N+](C)(C)CC3.O=[N+]([O-])c1cc([N+](=O)[O-])c([O-])c([N+](=O)[O-])c1[O-]`, the activation was inactive: -0.797%. With `O=[N+]([O-])c1cc([N+](=O)[O-])c(Nc2ccc(Cl)cc2)c([N+](=O)[O-])c1` the activation was inactive: -40.4%. With `CC(C)c1ccc(OP(C)(=O)Nc2ccc(SC(F)(F)F)cc2)cc1` (stereo not given) the activation was inactive: -22.4%. With `CP(=O)(Nc1ccccc1F)Oc1ccccc1` (stereo not given) the activation was inactive: 5.6%. For `CCN(CC)CCCOC(=O)C(O)(c1ccccc1)C1CCCCC1` (stereo not given), the activation was inactive: 26.5%. For `Cc1c([N+](=O)[O-])cc([N+](=O)[O-])c(Br)c1[N+](=O)[O-]`, the activation was inactive: -0.289%. In the case of `O=[N+]([O-])c1cc([N+](=O)[O-])c(OC2CCCCC2O)c([N+](=O)[O-])c1` (stereo not given), the activation is reported as inactive: -7.86%. In the case of `CCCCCOc1ccc(NP(C)(=O)Oc2ccc(Cl)cc2Cl)cc1` (stereo not given), the activation is reported as inactive: -3.62%. With `CCN(CC)CCCNc1ccccc1[N+](=O)[O-].O=[N+]([O-])c1cc([N+](=O)[O-])c(O)c([N+](=O)[O-])c1` the activation was inactive: 22.3%. With `COc1ccc(OP(C)(=O)Nc2ccc(SC(F)(F)F)cc2)cc1` (stereo not given) the activation was inactive: -3.41%. With `CCOC(=O)c1ccc(NP(C)(=O)Oc2ccc(F)cc2)cc1` (stereo not given) the activation was inactive: 1.58%. With `O=[N+]([O-])c1cc([N+](=O)[O-])c(NCC2CCS(=O)(=O)C2)c([N+](=O)[O-])c1` (stereo not given) the activation was inactive: -15.1%. With `Cc1cc(-c2cccc3ccccc23)c(C)cn1.O=[N+]([O-])c1cc([N+](=O)[O-])c(O)c([N+](=O)[O-])c1` the activation was inactive: 17.7%. In the case of `O=[N+]([O-])c1ccc(OP2(=O)COCCO2)cc1` (stereo not given), the activation is reported as inactive: -2.6%. For `Cc1c(C(c2ccc3c(c2)OCO3)c2c(C)n(C)n(-c3ccccc3)c2=O)c(=O)n(-c2ccccc2)n1C.O=[N+]([O-])c1cc([N+](=O)[O-])c(O)c([N+](=O)[O-])c1`, the activation was inactive: 4.17%. For `COc1ccc(NP(C)(=O)Oc2ccccc2OC)cc1` (stereo not given), the activation was inactive: 1.86%. In the case of `O=[N+]([O-])c1cc([N+](=O)[O-])c(C(F)(F)F)c([N+](=O)[O-])c1O`, the activation is reported as inactive: -1.25%. In the case of `Cc1ccccc1NP(C)(=O)Nc1ccccc1C`, the activation is reported as inactive: 10.9%. In the case of `CP(=O)(Nc1ccc(SC(F)(F)F)cc1)Oc1ccc(F)cc1` (stereo not given), the activation is reported as inactive: -4.52%. For `CCOP(=O)(CC)OCC`, the activation was inactive: 9.34%. In the case of `COc1ccccc1OP(C)(=O)Nc1ccccc1Br` (stereo not given), the activation is reported as inactive: 12.5%. With `CC(C)(C)c1ccc(OP(C)(=O)O)cc1` the activation was inactive: 15.1%. In the case of `CN(C)C(=O)c1c([N+](=O)[O-])cc([N+](=O)[O-])cc1[N+](=O)[O-]`, the activation is reported as inactive: 4.96%. With `COc1ccc(OP(C)(=O)Nc2ccc(Br)cc2)cc1` (stereo not given) the activation was inactive: -11.1%. In the case of `CCc1ccc(OP(C)(=O)Nc2cccnc2)cc1` (stereo not given), the activation is reported as inactive: -1.68%. With `O=C(OCCCN1CCCC1)C(O)(c1ccccc1)C1CCCCC1` (stereo not given) the activation was inactive: -11.3%. In the case of `CP(=O)(OC12CC3CC(CC(C3)C1)C2)OC12CC3CC(CC(C3)C1)C2`, the activation is reported as inactive: 6.37%. In the case of `CCOC(=O)c1ccc(NP(C)(=O)Oc2ccc(Cl)cc2)cc1` (stereo not given), the activation is reported as inactive: -19.5%. For `CP(=O)(Nc1ccc(Cl)cc1Cl)Oc1ccccc1` (stereo not given), the activation was inactive: -6.44%. In the case of `CCCCCCCCCCCCCCCC1C[N+](C)(C)CCOP(C)(=O)O1` (stereo not given), the activation is reported as active: 103%. In the case of `CP(=O)(OCCOc1ccccc1)OCCOc1ccccc1`, the activation is reported as inactive: 8.7%. For `O=C1C(O)=C([N+](=O)[O-])C(=O)C(O)=C1[N+](=O)[O-]`, the activation was inactive: 29.6%. In the case of `Cc1cc(C)cc(OP(C)(=O)Nc2cccc(C(F)(F)F)c2)c1` (stereo not given), the activation is reported as inactive: -6.97%. In the case of `COc1ccc(OP(C)(=O)Nc2ccccc2Br)cc1` (stereo not given), the activation is reported as inactive: 6.52%. For `O=[N+]([O-])c1cc([N+](=O)[O-])c(Nc2ccccn2)c([N+](=O)[O-])c1`, the activation was inactive: -2.19%. For `COc1ccccc1OP(C)(=O)Nc1ccc(Br)cc1` (stereo not given), the activation was inactive: 0.435%. In the case of `COc1ccc(OP(C)(=O)Nc2ccccn2)cc1` (stereo not given), the activation is reported as inactive: -14.3%.
